Chains of the proteins cited; added tags and fusions are not shown. Lines headed by an entry give the natural chain unless they say otherwise; changes in a name come on top.
UniProt Q63016: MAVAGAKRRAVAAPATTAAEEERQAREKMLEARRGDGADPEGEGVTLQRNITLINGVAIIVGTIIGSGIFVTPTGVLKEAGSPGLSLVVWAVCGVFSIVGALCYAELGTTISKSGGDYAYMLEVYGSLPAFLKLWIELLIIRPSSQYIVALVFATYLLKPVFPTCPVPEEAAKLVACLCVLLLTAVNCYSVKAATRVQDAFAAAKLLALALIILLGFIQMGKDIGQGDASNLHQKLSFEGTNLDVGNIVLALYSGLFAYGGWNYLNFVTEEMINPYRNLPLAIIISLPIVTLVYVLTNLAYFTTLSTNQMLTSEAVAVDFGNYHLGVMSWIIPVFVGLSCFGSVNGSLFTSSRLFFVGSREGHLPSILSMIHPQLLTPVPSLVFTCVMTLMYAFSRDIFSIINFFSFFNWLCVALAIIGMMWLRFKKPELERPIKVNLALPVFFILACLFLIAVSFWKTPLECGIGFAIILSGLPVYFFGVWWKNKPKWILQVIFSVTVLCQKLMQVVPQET

In ChEMBL document CHEMBL1155529:

The compounds below were run against Large neutral amino acids transporter small subunit 1 (Rattus norvegicus) (UniProt Q63016) (assay: Inhibition of LAT1-mediated L-[14C]leucine uptake in Sprague-Dawley rat brain by duel-labeled liquid scintillation counting).

Compound | inhibition
NC1(C(=O)O)Cc2ccccc2C1 | Dose-dependent effect
NC1(C(=O)O)CCc2cccc(N(CCCl)CCCl)c2C1 (centres undefined) | Dose-dependent effect
NC1(C(=O)O)CC2CC1c1ccccc12 (centres undefined) | Dose-dependent effect
NC1(C(=O)O)Cc2ccc(N(CCCl)CCCl)cc2C1 (centres undefined) | Dose-dependent effect
